Results: ChEMBL document CHEMBL4673223, “Synthesis, Biological, and Structural Explorations of New Zwitterionic Derivatives of 14- O-Methyloxymorphone, as Potent μ/δ Opioid Agonists and Peripherally Selective Antinociceptives” (J Med Chem, 2019)

Chains of the proteins cited; added tags and fusions are not shown.
UniProt P33535, whole entry: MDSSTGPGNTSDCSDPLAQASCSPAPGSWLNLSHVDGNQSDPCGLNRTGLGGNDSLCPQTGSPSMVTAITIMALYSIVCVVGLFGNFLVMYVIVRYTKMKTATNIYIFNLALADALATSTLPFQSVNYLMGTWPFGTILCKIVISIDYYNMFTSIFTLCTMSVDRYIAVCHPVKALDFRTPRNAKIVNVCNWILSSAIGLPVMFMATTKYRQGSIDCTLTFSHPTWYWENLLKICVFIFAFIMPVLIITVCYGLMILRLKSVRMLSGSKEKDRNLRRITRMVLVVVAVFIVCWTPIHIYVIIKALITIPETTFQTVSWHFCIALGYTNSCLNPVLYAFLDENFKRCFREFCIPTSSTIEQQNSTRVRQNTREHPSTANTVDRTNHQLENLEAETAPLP

Molecular target: Mu-type opioid receptor (Rattus norvegicus, UniProt P33535)
Test: Displacement of [3H]DAMGO from mu opioid receptor in rat brain membranes incubated for 45 mins by liquid scintillation counting method
Type: cell membranes, Membrane
Procedure, shortened: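 Rat brain membranes (cerebella removed; 0.3–0.5 mg protein) in 50 mM Tris-HCl, pH 7.4, were incubated 45 min at 35 °C with 1 nM [3H]DAMGO (MOR) or 0.5 nM [3H][Ile5,6]deltorphin II (DOR) plus varied test concentrations. Nonspecific binding was set with 10 μM naloxone. Samples were GF/C filtered, washed and scintillation counted. Ki was obtained by Cheng–Prusoff; duplicates, 3–4 experiments.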

SMILES	Ki
CO[C@@]12CC[C@@H](N[C@@H](C)C(=O)O)[C@@H]3Oc4c(O)ccc5c4[C@@]31CCN(C)[C@@H]2C5	1.9 nM
CO[C@@]12CC[C@H](N[C@@H](C)C(=O)O)[C@@H]3Oc4c(O)ccc5c4[C@@]31CCN(C)[C@@H]2C5	0.77 nM
